Literature values as cited in patent US20050250788A1, “Aqueous outflow enhancement with vasodilated aqueous cavity” (priority 2004, published 2005).

System: uptake of serotonin into human platelets
Conditions: at clinical doses

## CN[C@H]1CC[C@@H](c2ccc(Cl)c(Cl)c2)c2ccccc21 [sertraline]
  uptake of serotonin into human platelets: blocks the uptake of serotonin
